Chains of the proteins cited; added tags and fusions are not shown.
UniProt P35372, whole entry: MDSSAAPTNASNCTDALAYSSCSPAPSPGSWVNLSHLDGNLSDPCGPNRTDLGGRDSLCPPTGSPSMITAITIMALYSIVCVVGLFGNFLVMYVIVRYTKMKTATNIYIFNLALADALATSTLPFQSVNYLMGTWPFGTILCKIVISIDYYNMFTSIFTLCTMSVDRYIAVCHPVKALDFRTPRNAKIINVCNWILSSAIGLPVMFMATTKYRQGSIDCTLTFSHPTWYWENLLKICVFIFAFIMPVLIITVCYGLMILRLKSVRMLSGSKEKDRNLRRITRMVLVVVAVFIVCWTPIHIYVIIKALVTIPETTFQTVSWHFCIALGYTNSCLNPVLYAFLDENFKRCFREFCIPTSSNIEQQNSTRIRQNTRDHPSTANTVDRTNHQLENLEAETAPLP

In article PMC6943441, “The Meta-Position of Phe^4 in Leu-Enkephalin Regulates Potency, Selectivity, Functional Activity, and Signaling Bias at the Delta and Mu Opioid Receptors” (Molecules, 2019):

Experiments:
[1] = molecular target: T1, µOR (Homo sapiens, UniProt P35372); experiment: cell-based
[2] = molecular target: T1, µOR; experiment: Competition radioligand binding, [3H]DAMGO
Experimental: Next, 100 µL of membrane suspension containing 7 µg protein was added to the agonist wells and incubated for 90 min at room temperature. The reaction mixture was then filtered over a GF-B filter plate (Perkin Elmer) followed by four quick washes with ice-cold 50 mM Tris HCl. The plate was dried overnight, after which 50 µL scintillation fluid (Ultimagold uLLT) was added and radioactivity was counted on a Packard TopCount NXT scintillation counter. All working solutions were prepared in a radioligand assay buffer containing 50 mM Tris HCl, 10 mM MgCl2, and 1 mM ethylenediaminetetraacetic acid at pH 7.4.

[3] = molecular target: δOR (Homo sapiens, UniProt P41143); experiment: PathHunter β-arrestin 2 recruitment assay in CHO cells

`CC(C)C[C@@H](NC(=O)[C@H](Cc1ccccc1)NC(=O)CNC(=O)[C@@H](C)NC(=O)[C@@H](N)Cc1ccc(O)cc1)C(=O)O` [DADLE, D-Ala^2, D-Leu^5-enkephalin, reference compound] was tested. Which EC50 [1] did it give?
Its EC50 is 468 nM.

What about the Ki [2] of the same compound?
The Ki was 1.58 nM.

Which EC50 [3] does the source give for `C[C@@H](NC(=O)[C@@H](N)Cc1ccc(O)cc1)C(=O)NCC(=O)N(C)[C@@H](Cc1ccccc1)C(=O)NCCO` [DAMGO, (D-Ala^2, N-MePhe^4, Gly-ol) enkephalin, reference compound] here?
The EC50 was greater than 10 µM.
